# Binding of CDR-mutated scFvs to a peptide of the spike HR2 region

The target is the same throughout: PDVDLGDISGINAS, from the HR2 region of SARS-CoV-2 spike.

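The parent was found by panning a naive human phage display library on the peptide. Variants in AAYL50 differ from the parent at up to three CDR positions; double and triple changes were sampled at random. The scFvs were displayed on barcoded MATa yeast, the peptide on MATalpha yeast. Pairs that bind mate more often; barcode pairs of the diploids are counted by sequencing. A regression on co-assayed BCL2-family reference pairs converts the normalised counts of each replicate to an apparent Kd. There are three technical replicates.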

Ab-14 is the parent antibody, in scFv form: VH, then three GGGGS repeats, then VL. The heavy chain is unchanged in all variants.
VH: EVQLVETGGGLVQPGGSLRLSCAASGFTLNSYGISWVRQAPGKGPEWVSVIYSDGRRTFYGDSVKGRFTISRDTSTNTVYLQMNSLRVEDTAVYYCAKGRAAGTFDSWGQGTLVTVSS
VL: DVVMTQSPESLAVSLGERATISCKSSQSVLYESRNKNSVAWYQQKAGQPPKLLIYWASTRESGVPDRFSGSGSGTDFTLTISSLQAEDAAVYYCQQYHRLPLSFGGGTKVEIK

Each variant is given by its three light chain CDRs, as the data file delimits them; those of the parent are KSSQSVLYESRNKNSVA, WASTRES, QQYHRLPLS.
Every variant below is changed at L100 of the VL (sequential numbering).
Each Kd is an estimate from the mating assay, the geometric mean of the replicates in which the pair was seen; lower is stronger.
"nd" marks a missing value. The strain was present, yet no cells mated with the target were sequenced in any replicate, which points to weak or no binding.

- KSSQSVLYESRNKHSVA / WASTRES / QQYHSGPLS -> 11 nM (3 of 3 replicates; controls 2 of 9)
- KSSGSVLYESRNKNSVA / WASKRES / QQYHRQPLS -> 45 nM (3 of 3 replicates; controls 4 of 9)
- KSSQSVLYESYNKNSVA / WASTRES / QQYHRQPLA -> 18 nM (3 of 3 replicates; controls 1 of 9)
- KSSQGVGYESRNKNSVA / WASTRES / QQYHRVPLS -> 28 nM (3 of 3 replicates; controls 3 of 9)
- KSSQSVLYESRNKNSVA / CASTRES / QQYHRAPTS -> 18 µM (2 of 3 replicates; controls 0 of 9)
- KPSQSVLYESRNKNSVA / WASTRES / QQYHSPPLS -> 6.2 µM (1 of 3 replicates; controls 0 of 9)
- KSSQSVLYESRNKNSVA / WASTRES / QQLERHPLS -> 100 nM (3 of 3 replicates; controls 2 of 9)
- KSSQSVLYESRMKNSVA / WASTREG / QQYHRFPLS -> 91 nM (3 of 3 replicates; controls 0 of 9)
- FSSQSVLYESRNKNSVA / WASTRES / QTYHRSPLS -> 55 µM (3 of 3 replicates; controls 5 of 9)
- KEKQSVLYESRNKNSVA / WASTRES / QQYHRHPLS -> 490 nM (3 of 3 replicates; controls 2 of 9)
- KSSQSVLYESRNKNSVE / WASTRGS / QQYHRPPLS -> nd (0 of 3 replicates; controls 0 of 9)
- KSSQSVLYERRNKNSVA / WASTRES / QQYVRCPLS -> 5.0 µM (1 of 3 replicates; controls 3 of 9)
- ISSQSVLYESRNKNSVA / WASTRES / QQYHRMNLS -> 46 µM (1 of 3 replicates; controls 0 of 9)
- KSSQSVLEESRVKNSVA / WASTRES / QQYHRFPLS -> 4.5 nM (3 of 3 replicates; controls 2 of 9)
- KSSQSVLYESRNKNSVA / WALTQES / QQYHRWPLS -> nd (0 of 3 replicates; controls 1 of 9)
- KSSQSVLYESRNKNSVA / WAPTRES / QQYHRTPLS -> nd (0 of 3 replicates; controls 0 of 9)
- KSSQSVEYESRNKNSVA / WASPRES / QQYHRNPLS -> nd (0 of 3 replicates; controls 1 of 9)
- KDSQSVEYESRNKNSVA / WASTRES / QQYHRSPLS -> 180 nM (3 of 3 replicates; controls 3 of 9)
- KSSQSVLYERRNKQSVA / WASTRES / QQYHRQPLS -> 810 µM (1 of 3 replicates; controls 3 of 9)
- KSSQSVLYESRNKNSVA / WASTREV / QQYHRQPLS -> 220 nM (1 of 3 replicates; controls 0 of 9)
- KSSQSVLYEWRNKNSVA / EASTRES / QQYHREPLS -> nd (0 of 3 replicates; controls 0 of 9)
- KSSQSWLYESRDKNSVA / WASTRES / QQYHRGPLS -> 5.8 µM (1 of 3 replicates; controls 0 of 9)
- KSSQSVLYESRNKNSVA / MASTVES / QQYHRNPLS -> nd (0 of 3 replicates; controls 0 of 9)
- KSSQSVLYESRAKNSVA / WASTRES / QQGHRMPLS -> 3.6 µM (1 of 3 replicates; controls 1 of 9)
- KLSYSVLYESRNKNSVA / WASTRES / QQYHRMPLS -> 3.6 nM (3 of 3 replicates; controls 2 of 9)
- KSSQSVPYESRNKNSVA / WASTRES / QQYHRCSLS -> nd (0 of 3 replicates; controls 1 of 9)
- KSSQSVLYESRNKNHVA / WASTRKS / QQYHRNPLS -> 4.8 µM (2 of 3 replicates; controls 2 of 9)
- KSKSSVLYESRNKNSVA / WASTRES / QQYHRMPLS -> 23 nM (3 of 3 replicates; controls 1 of 9)
- KSSQSVLYESRNKNSVA / WASTWES / QDYHRHPLS -> 6.4 µM (2 of 3 replicates; controls 3 of 9)
- KSEQSVLYESRNKNSVA / WASTRES / QQYHRNPLS -> 8.5 nM (3 of 3 replicates; controls 2 of 9)
- KSSQSVLYEYRNKNSVA / WASTRES / QQYHRSPLS -> 6.6 nM (3 of 3 replicates; controls 1 of 9)
- KSSQSVLYESRNNNSVG / WASTRES / QQYHRSPLS -> 1.2 mM (1 of 3 replicates; controls 7 of 9)
- KSSQSVLYESRNKNSVA / WASTRMS / QQYHRYKLS -> 110 µM (1 of 3 replicates; controls 1 of 9)
- KSSQSVLYESRNSKSVA / WASTRES / QQYHRDPLS -> 20 µM (1 of 3 replicates; controls 1 of 9)
- KSSQSVLYESRNANSVA / WASTYES / QQYHRRPLS -> nd (0 of 3 replicates; controls 3 of 9)
- KSSQSVLYESRNKNSVA / WALTRES / QQYPRQPLS -> 120 µM (1 of 3 replicates; controls 2 of 9)
- KSSQSVLYESGNKNSAA / WASTRES / QQYHRNPLS -> 14 µM (1 of 3 replicates; controls 0 of 9)
- KSSQKVLYDSRNKNSVA / WASTRES / QQYHRWPLS -> 52 µM (1 of 3 replicates; controls 1 of 9)
- KSSQSVLYESRNKNSVA / KQSTRES / QQYHRSPLS -> 20 µM (2 of 3 replicates; controls 0 of 9)
- KSSQSVLYESRNKNSVA / MASTRES / QQYHRQPLS -> 1.0 µM (2 of 3 replicates; controls 0 of 9)
- KSSQSVLYESRNKNSVA / WASNRES / QQWHRQPLS -> nd (0 of 3 replicates; controls 0 of 9)
- KSSQSMLYESRNKNSVA / WASTRFS / QQYHRVPLS -> 14 µM (3 of 3 replicates; controls 3 of 9)
- KSSQSVIYESRNKNSVA / QASTRES / QQYHRGPLS -> nd (0 of 3 replicates; controls 5 of 9)
- KSSQSVLYESRNKNSVA / WASKRES / QQYHYVPLS -> nd (0 of 3 replicates; controls 2 of 9)
- KSSQSVLYESRNKNSVA / WASTRES / QQYHRPPSC -> 14 µM (1 of 3 replicates; controls 0 of 9)
- KSSQSVLYESFNKNSVA / WASTRES / NQYHRDPLS -> 6.8 nM (3 of 3 replicates; controls 0 of 9)
- KSSQSDLYESRNKNSVA / WASTRES / QQYDRPPLS -> nd (0 of 3 replicates; controls 4 of 9)
- KSSQSVLYESRNKNSVA / WACTRES / QQYHRYPLS -> nd (0 of 3 replicates; controls 0 of 9)
- KSSQSVLYESRNKNSVA / WASMRES / QQPHRDPLS -> 490 µM (1 of 3 replicates; controls 3 of 9)
- KSSQSVLYESRNKVSVA / WISTRES / QQYHRGPLS -> 390 nM (1 of 3 replicates; controls 0 of 9)

Top 6 of the variants detected in all replicates, tightest first:

CDR-L1	CDR-L2	CDR-L3	Kd	detected	control signals
KLSYSVLYESRNKNSVA	WASTRES	QQYHRMPLS	3.6 nM	3 of 3	2 of 9
KSSQSVLEESRVKNSVA	WASTRES	QQYHRFPLS	4.5 nM	3 of 3	2 of 9
KSSQSVLYEYRNKNSVA	WASTRES	QQYHRSPLS	6.6 nM	3 of 3	1 of 9
KSSQSVLYESFNKNSVA	WASTRES	NQYHRDPLS	6.8 nM	3 of 3	0 of 9
KSEQSVLYESRNKNSVA	WASTRES	QQYHRNPLS	8.5 nM	3 of 3	2 of 9
KSSQSVLYESRNKHSVA	WASTRES	QQYHSGPLS	11 nM	3 of 3	2 of 9

Nonspecific signal, from three strains lacking the peptide, appeared in 18% of pairings of library AAYL50, centred on 15 µM (5% of these signals below 970 nM); values are not corrected for it. Also given: how often the same scFv was detected with the empty control strains.
For reference, the parent read 4.4 nM as the reference entry and 48 nM as a member of this library.

The measurements come from Engelhart et al. 2022 (doi:10.1038/s41597-022-01779-4) through the FLAb antibody collection.